## Antibody variant affinities, Ab-14 light chain, assay 1

Reference: Engelhart et al. 2022, doi:10.1038/s41597-022-01779-4. File: FLAb, binding data.

The target is the same throughout: PDVDLGDISGINAS, from the HR2 region of SARS-CoV-2 spike.

Ab-14 is the parent antibody, in scFv form: VH, then three GGGGS repeats, then VL. The heavy chain is unchanged in all variants.
VH: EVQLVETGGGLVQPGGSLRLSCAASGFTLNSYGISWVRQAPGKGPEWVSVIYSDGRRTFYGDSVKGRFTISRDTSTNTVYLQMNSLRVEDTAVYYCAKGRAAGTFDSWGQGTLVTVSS
VL: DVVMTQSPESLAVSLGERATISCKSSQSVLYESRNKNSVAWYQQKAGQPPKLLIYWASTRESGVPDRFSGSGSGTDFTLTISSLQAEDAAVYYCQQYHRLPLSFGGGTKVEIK

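In library AAYL50, one, two or three CDR residues were substituted; doubles and triples were drawn at random. AlphaSeq pools MATa yeast showing the antibodies with MATalpha yeast showing the peptide. The frequency of each diploid, read from paired DNA barcodes, reflects how well the two displayed proteins bind. Scores were corrected for input abundance and mapped to Kd with protein pairs of known affinity run in the same pool. Each pool was mated in three replicate cultures.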

Substitutions are numbered in sequence along the VL above, starting at 1 (not Kabat). Every variant below is changed at S26 of the VL (sequential numbering). Each Kd is an estimate from the mating assay, the geometric mean of the replicates in which the pair was seen; lower is stronger. An entry "no signal" has no value in the source: the pair was not observed among the diploids in any replicate. This suggests poor binding but is not conclusive. Background: pairings of library AAYL50 with three empty control strains gave a value in 18% of cases (median 15 µM, 5th percentile 970 nM). Values in that range, when seen in few replicates, are hard to tell from nonspecific mating.

For S26R/Q27L/Q96N, the assay gave 21 µM (3 of 3 replicates). With S26T/S33W/P101H the result was no signal (0 of 3 replicates). For S26W/N37M/Q96N, the assay gave no signal (0 of 3 replicates). Variant S26G/E32M/S33R gave no signal (0 of 3 replicates). Variant S26Y/V39S/Y97K gave 1.7 µM (1 of 3 replicates). For S26L/Q95F/H98T, the assay gave 11 µM (3 of 3 replicates). For S26A/N35W/S62N, the assay gave 22 nM (3 of 3 replicates). For S26P/T59R/R60T, the assay gave 39 µM (1 of 3 replicates).

Variant S26W/S28C/P101A gave no signal (0 of 3 replicates). Variant S26K/Y31M/W56L showed 48 nM (3 of 3 replicates). Variant S26L/L30V/S62W showed 110 nM (3 of 3 replicates). Variant S26M/S58Q/P101V gave 190 µM (1 of 3 replicates). With S26N/S28Q the result was 15 nM (3 of 3 replicates). With S26I/E61I the result was 19 nM (3 of 3 replicates). Variant S26E/T59C/Q95Y showed 150 nM (3 of 3 replicates). With K24C/S26W/L100Y the result was 42 µM (2 of 3 replicates).

For S26D/E32T/S58M, the assay gave no signal (0 of 3 replicates). With K24T/S26F/N35M the result was 180 nM (2 of 3 replicates). Variant K24I/S26Y/N37I showed no signal (0 of 3 replicates). Variant S26F/V29E/S62Y showed 5.6 nM (3 of 3 replicates). Variant S26Y/T59Y/L102R showed 18 µM (3 of 3 replicates). With S26N/E61S/P101T the result was 130 nM (3 of 3 replicates). Variant K24V/S26D/T59A showed 1.2 µM (3 of 3 replicates). For S26V/K36C, the assay gave 3.5 µM (3 of 3 replicates).

Variant S26A/Y31A/L102K gave 440 nM (1 of 3 replicates). With S25T/S26T/K36F the result was no signal (0 of 3 replicates). For S26F/P101E, the assay gave no signal (0 of 3 replicates). With S26A/E32H/T59K the result was 400 nM (3 of 3 replicates). With K24W/S26M/R34G the result was 1.4 µM (3 of 3 replicates). For S26N/S28P/K36S, the assay gave 86 nM (3 of 3 replicates). With S26D/R60F/Q96W the result was no signal (0 of 3 replicates). Variant S26T/Q96S gave 29 nM (2 of 3 replicates).

Variant S26F/R34F/S38P gave no signal (0 of 3 replicates). Variant S26V/R99Q/L100Q gave 32 µM (1 of 3 replicates). Variant S26N/Q95R/S103W showed 13 µM (1 of 3 replicates). With S26F/L30A/Y31E the result was 20 nM (3 of 3 replicates). For S26I/Q96L, the assay gave no signal (0 of 3 replicates).

The 3 strongest on average among those seen in every replicate, once more:

{"changes": "S26F/V29E/S62Y", "Kd": "5.6 nM", "replicates with signal": "3/3"}
{"changes": "S26N/S28Q", "Kd": "15 nM", "replicates with signal": "3/3"}
{"changes": "S26I/E61I", "Kd": "19 nM", "replicates with signal": "3/3"}